Patent EP4768477A1 (Yichang Humanwell Pharmaceutical Co., Ltd., priority 2024, dated 2025)

Tests used:
hNOPr = hNOPr (Homo sapiens, UniProt P41146); test: Radioligand binding affinity test, [3H]-Nociceptin displacement on receptor cell membranes; conditions: for Selectivity hMOR/hNOPr: ratio of Ki values hMOR/hNOPr; for Ki: read-out: Ki (nM) of Affinity of opioid receptor hNOPr, 3H-Nociceptin 0.5 nM, cell membranes containing human NOPr; for Selectivity hKOR/hNOPr: ratio of Ki values hKOR/hNOPr
hMOR = hMOR (Homo sapiens, UniProt P35372); test: Agonistic function, cAMP method, 293-MOR cells; conditions: for hMOR Emax (%): forskolin; for EC50: read-out: hMOR EC50, forskolin

SMILES	Selectivity hMOR/hNOPr (hNOPr)	Ki (hNOPr) [nM]	Selectivity hKOR/hNOPr (hNOPr)	hMOR Emax (%) (hMOR)	EC50 (hMOR) [µM]
CN(C)C(=O)Cn1c(=O)n(C2CCN(C3CCC(C)(C)CC3)CC2)c2cc(F)c(F)cc21	1.4	269			
CNC(=O)Cn1c(=S)n(C2CCN(C3CCC(C)(C)CC3)CC2)c2cc(F)c(F)cc21	10.3	6.77	4.35		
CC1(C)CCC(N2CCC(n3c(=O)n(CCS(N)(=O)=O)c4cc(F)c(F)cc43)CC2)CC1				101.0	0.159
CC(C)[C@H]1CC[C@@H](N2CCC(n3c(=O)n(CC(=O)N(C)C)c4cc(F)c(F)cc43)CC2)CC1 (relative stereo)	20.9	4.89	280	75.80	0.54
CCNC(=O)Cn1c(=O)n(C2CCN(C3CCC(C)(C)CC3)CC2)c2cc(F)c(F)cc21	3.31	32.7	6.86	77.24	0.437
CS(=O)(=O)Cn1c(=O)n(C2CCN(C3CCC4(CC3)CC4)CC2)c2cc(F)c(F)cc21	87.6	2.55	88.6	101.00	0.92
CNC(=O)Cn1c(=O)n(C2CCN([C@H]3CC[C@@H](C(C)C)CC3)CC2)c2cc(F)c(F)cc21 (relative stereo)	185	0.3	3820	80.52	0.452
CC1(C)CCC(N2CCC(n3c(=O)n(CS(C)(=O)=O)c4cc(F)c(F)cc43)CC2)CC1	11.8	13.7	22.4	87.56	0.711
CCNC(=O)Cn1c(=O)n(C2CCN(C3CCC(F)(F)CC3)CC2)c2cc(F)c(F)cc21	1.81	1450			
CCOC(=O)Cn1c(=O)n(C2CCN(C3CCC(C)(C)CC3)CC2)c2cc(F)c(F)cc21	1.18	56.5	10.5		
CS(=O)(=O)Cn1c(=O)n(C2CCN(C3CCC4(CCC4)CC3)CC2)c2cc(F)c(F)cc21				92.2	0.258
CNC(=O)Cn1c(=O)n(C2CCN(C3CCC(F)(F)CC3)CC2)c2cc(F)c(F)cc21	14.6	182			
CNC(=O)Cn1c(=O)n(C2CCN(C3CCC(C)(C)CC3)CC2)c2cc(Cl)c(F)cc21				118.7	0.691
CC1(C)CCC(N2CCC(n3c(=O)n(CC(=O)NCC4CC4)c4cc(F)c(F)cc43)CC2)CC1	2.41	73.9	2.13		
CC1(C)CCC(N2CCC(n3c(=O)n(CC(=O)NC4CC4)c4cc(F)c(F)cc43)CC2)CC1	2.57	36.6	9.98		
CNC(=O)Cn1c(=O)n(C2CCN(C3CCC(C)(C)CC3)CC2)c2cc(F)c(F)cc21	28.1	5.97	136	86.94	1.14
CCS(=O)(=O)NCCN1Cc2cc(F)c(F)cc2N(C2CCN(C3CCC(C)(C)CC3)CC2)C1=O		52.9			
Cc1noc(Cn2c(=O)n(C3CCN(C4CCC(C)(C)CC4)CC3)c3cc(F)c(F)cc32)n1	1.95	72.6	15.1		
CC1(C)CCC(N2CCC(n3c(=O)n(CC(N)=O)c4cc(F)c(F)cc43)CC2)CC1	14.5	20	21.7		
CN(C)C(=O)Cn1c(=S)n(C2CCN(C3CCC(C)(C)CC3)CC2)c2cc(F)c(F)cc21	19.7	3.81	2.47		
CNC(=O)Cn1c(=O)n(C2CCN(C3CCC4(CC3)CC4)CC2)c2cc(F)c(F)cc21	49.7	4.78	72.2	89.92	1.62
CNC(=O)C(C)n1c(=O)n(C2CCN(C3CCC(C)(C)CC3)CC2)c2cc(F)c(F)cc21 (centres unmarked)	6.88	32.6	15.1		
CC1(C)CCC(N2CCC(n3c(=O)n(CC(=O)NCCO)c4cc(F)c(F)cc43)CC2)CC1	1.64	104	1.98		
CC1(C)CCC(N2CCC(n3c(=O)n(CS(C)(=N)=O)c4cc(F)c(F)cc43)CC2)CC1 (centres unmarked)				92.2	0.417
CC(=O)NCCn1c(=O)n(C2CCN(C3CCC(C)(C)CC3)CC2)c2cc(F)c(F)cc21	2.82	64	15.4		
